Experimental data from ChEMBL document CHEMBL3259702, “Discovery of GS-9973, a selective and orally efficacious inhibitor of spleen tyrosine kinase” (J Med Chem, 2014).

Biological target: Tyrosine-protein kinase SYK (Homo sapiens, UniProt P43405)

## c1cn2cc(-c3ccc4cn[nH]c4c3)nc(Nc3ccc(N4CCOCC4)cc3)c2n1 [ENTOSPLETINIB]
  IC50: 7.7 nM
